Earlier results on one substance are cited in article PMC7771244.

The target of the series is H4 K16ac peptide (Homo sapiens) (UniProt P62805). Conditions: cited from earlier work.

As usually defined, the Kd is the free concentration of one partner at which half of the binding sites on the other are occupied at equilibrium, for simple one-to-one binding. On to BPTF bromodomain (from UniProt Q12830), for which the Kd was 150 µM.
